# Test: in vitro
# Conditions: pig, LLC-PK1
smiles,measurement,value
"CC(C)(C)[C@H](NC(=O)C(F)(F)F)C(=O)N1C[C@H]2[C@@H]([C@H]1C(=O)N[C@H](C#N)C[C@@H]1CCNC1=O)C2(C)C [nirmatrelvir, reference compound]",efflux ratio,2.3
